{"source": "patent US4900538A", "about": "“Composition for increasing potency of adriamycin or daunomycin and reducing toxicities thereof” (Suntory Limited, priority 1982, dated 1990)", "key": {"[1]": {"system": "L1210 cells", "test": "In vivo carcinostatic activity against transplanted L1210 cells (ILS, survivors)", "details": "i.p."}, "[2]": {"system": "strains used (Salmonella typhimurium, Escherichia coli)", "test": "Growth / survival of the strains used in the mutagenicity tests", "assay_type": "cell-based", "details": "explains apparent reduction of mutagenicity at high levels"}}, "data": [{"smiles": "COc1cccc2c1C(=O)c1c(O)c3c(c(O)c1C2=O)C[C@@](O)(C(=O)CO)C[C@@H]3O[C@H]1C[C@H](N)[C@H](O)[C@H](C)O1", "note": "[adriamycin]", "values": [{"measurement": "ILS (index of life spread to the control group)", "setting": "[1]; adriamycin 1 mg/kg/day × 5, sodium hydrogensulfite 0", "value": "> 194", "unit": "%"}, {"measurement": "ILS (index of life spread to the control group)", "setting": "[1]; adriamycin 3 mg/kg/day × 5, sodium hydrogensulfite 0", "value": 71, "unit": "%"}, {"measurement": "Cellular toxicity", "setting": "[2]", "value": "have cellular toxicity"}]}]}
